Tested on: hippocampal slices
Assay: Slice seizure assay (population spikes in hippocampal slices)
Conditions: perfusion of slices; 200 μM is the limit of solubility of CX1739

picrotoxin
Concentration at which seizure activity is seen in hippocampal slices: 50 µM

Source: patent publication US20240100023A1, “Compositions and Methods For Treating Spinal Cord Injuries” (priority 2020, published 2024)
